Antibody variant affinities, Ab-14 light chain, assay B

The target is the same throughout: PDVDLGDISGINAS, from the HR2 region of SARS-CoV-2 spike.

The variants keep the heavy chain, the linker and the frameworks of Ab-14 (scFv order VH, a 15-residue (Gly4Ser)3 linker, VL).
VH: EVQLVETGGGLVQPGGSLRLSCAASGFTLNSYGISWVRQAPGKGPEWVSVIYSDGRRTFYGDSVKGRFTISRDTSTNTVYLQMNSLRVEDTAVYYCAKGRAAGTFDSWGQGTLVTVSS
VL: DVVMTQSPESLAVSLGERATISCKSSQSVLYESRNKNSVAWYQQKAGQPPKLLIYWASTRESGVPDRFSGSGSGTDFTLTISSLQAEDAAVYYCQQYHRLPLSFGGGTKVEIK

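The starting antibody came from a phage panning campaign against this peptide. The variants were designed computationally from a first round of random CDR variants and then made and measured. Several design methods are mixed in this list. AlphaSeq pools MATa yeast showing the antibodies with MATalpha yeast showing the peptide. Mating (16 h, 30 °C) was followed by selection of diploids and sequencing of their barcodes. A regression on co-assayed BCL2-family reference pairs converts the normalised counts of each replicate to an apparent Kd. There are six technical replicates.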

The parent's light chain CDRs are KSSQSVLYESRNKNSVA, WASTRES, QQYHRLPLS; each variant's own CDRs replace them letter for letter. The Kd shown is the geometric mean over detected replicates; a lower Kd is a better binder. "nd" marks a missing value. The strain was present, yet no cells mated with the target were sequenced in any replicate, which points to weak or no binding. Empty control strains, which show no peptide, gave a signal in 4% of pairings with all light chain designs; the median was 430 nM and 95% of these signals were weaker than 38 nM. No background was subtracted.

| CDR-L1 | CDR-L2 | CDR-L3 | Kd (apparent) | seen in |
|---|---|---|---|---|
| KIGMTLNQLLHQKNNVA | DLVERED | QQYHRLPLS | 4.1 nM | 6 of 6 |
| KSSQSVSYESRNKNSVA | WASTRES | QQYHRLPFS | 40 nM | 5 of 6 |
| KSLQSTLYESRNFNSVA | HASTRED | QQYHRLPLS | 1.0 nM | 6 of 6 |
| MIYGTQRELGLAANSIA | DNVTRYQ | QQYERLPLS | 600 nM | 2 of 6 |
| KASTSVLYESINKNSVA | WASTRES | QQYHRLPLS | 88 nM | 1 of 6 |
| MMSMGYLGGMRAKNNVA | QEETREE | QQYHRLPLI | 11 nM | 6 of 6 |
| KSSQSHLYESRNFNSVA | GASTRES | QQYHRLPLS | 1.6 nM | 6 of 6 |
| HFSQVTMYGYWNYNSVA | QTSTREE | QQYDRLPLS | 800 nM | 4 of 6 |
| SLDMLLNQVYAYGSNIA | NAQVLVY | QQYYRLPLV | 110 nM | 2 of 6 |
| TLTQVQGMESHNADSVA | DLSTRGS | QQYHRLPLS | 3.5 nM | 6 of 6 |
| KVSIEDLGGDRNKNSVA | HASLRES | QQYHRLPLS | 1.1 nM | 6 of 6 |
| TISQMFLGESYNRNSVA | QASTRES | QSYHRLPLS | 640 pM | 6 of 6 |
| KSAYSELGESANKNSVA | SANTRES | QQYHRLPLS | 11 nM | 6 of 6 |
| TISGVMQQMSHSKSNVA | EVSMRLD | QQYVRLPLA | 18 nM | 6 of 6 |
| KLTMITGLEKVSGANVA | EMETREK | QQYNRLPLS | 2.4 nM | 6 of 6 |
| KFNISKEGVTSEGESIA | GSQTIDE | QQYDRLPLA | 190 nM | 5 of 6 |
| KSSQSSLYESGNKNSVA | HASTRES | QQYHRLPLS | 620 pM | 6 of 6 |
| KSSQSVLDESRNKESIA | HASTRES | QSYHRLPLS | 2.3 nM | 6 of 6 |
| KSSQSELYESRNKNSVA | WASTRES | QQEHRLPLS | nd | 0 of 6 |
| KLSQSVLYESRNKNSVA | EASTRES | QQYHRLPLL | 1.1 nM | 6 of 6 |
| KLQQSVLYESRNKNNVA | NASTRED | QQYHRLPLS | 1.2 nM | 6 of 6 |
| TISQVMNTLTRQGNNVA | DLAERED | QQYFRLPLS | 3.4 nM | 6 of 6 |
| KFNMEVGGQNTNKYNIA | AAHQLEY | QTYHRLPLS | 35 nM | 5 of 6 |
| SLGLATMLEEQVRNSVA | NNSTRED | QQYDRLPLS | 7.5 nM | 3 of 6 |
| KSRQSVLYESRNKNSVA | WASTREH | QQYHRLPLS | 2.9 nM | 6 of 6 |
| VSSQSVLYESRNSNSVA | WATTRES | QQYHRLPLS | 82 nM | 2 of 6 |
| KLSQSDLYESRMKNSVA | DASTRES | QQYHRLPLS | 460 pM | 6 of 6 |
| TITQMMLMTSHNMNSVA | HASTRED | QQYHRLPLI | 19 nM | 6 of 6 |
| HIDSQEVGTIGAESNVA | ETNTLLY | QQYSKLPLS | 68 nM | 6 of 6 |
| RLQQEHGGYPKMMDNIA | QGSQRQH | QSYDRLPLS | 2.9 nM | 6 of 6 |
| QLEFERGQEWKQGAAIA | GNTESLH | QQYAMLPLS | 44 nM | 5 of 6 |
| KDSQKVLYESFNKNSVA | WATTRET | QQYHRLPLS | nd | 0 of 6 |
| SMSWAHFNGDNWMNSIA | DATHLAY | QQYSRLPIT | 8.7 nM | 6 of 6 |
| RFSYEYEMVNTAKESIA | NAHTVQM | QQYSRLPLA | 7.7 nM | 6 of 6 |
| KVSEFMRGLMKKQDSIA | DNVTRNS | QQYDRLPLS | 23 nM | 6 of 6 |
| QMKDSLSQGIYRQDSVA | STDIRVL | QQYHHLPLS | 7.7 nM | 6 of 6 |
| KIDQQTSYDNGRERAIA | DVTIRDW | QQYARLPLL | 48 nM | 4 of 6 |
| KSSPSVWYESHNKNSVA | NASTRMS | QQYHRLPLS | 1.4 nM | 6 of 6 |

Further variants, results first:

| Kd (apparent) | seen in | CDR-L1 | CDR-L2 | CDR-L3 |
|---|---|---|---|---|
| 3.7 nM | 6 of 6 | KVSWSVLYESNNKNSVA | HASTRED | QQYHRLPLS |
| 140 nM | 5 of 6 | VFSGQWDLNTTQNSSVA | NVSETML | QQYNRLPLM |
| 15 nM | 6 of 6 | KYSQSVLYESRNKNSVA | WASTRES | QQYPRLPLS |
| 690 pM | 6 of 6 | KQQQLVWYEQRNKNSVA | EGSTRES | QQYHRLPLS |
| 88 nM | 5 of 6 | NLSAMTAHESVKSKNVA | ERSTREQ | QQYNRLPLS |
| 5.2 nM | 6 of 6 | KLVQFMNRGTHHTSNIA | DAALREE | QQYNRLPLA |
| 220 nM | 1 of 6 | KLRQSTLFESRNKNKVT | GASTRES | QQYHRLPLS |
| 9.6 nM | 6 of 6 | KIGMTLNQLMHQKNNVA | DLVTREN | QQYGRLPLS |
| 1.0 nM | 6 of 6 | KLSESVLYQSQNWNQVA | EASTRMS | QQYHRLPLS |
| 7.8 nM | 6 of 6 | KIGGVTNGISRSKNSVA | EQSTRED | QQYDRLPLL |
| nd | 0 of 6 | NLSIEMSYYYENRYNIA | EMTVREY | QHYSRLPLA |
| 5.8 nM | 6 of 6 | TISQVLNTLTRHGNNVA | DLAERED | QQYFRLPLS |
| 3.1 nM | 6 of 6 | IAVQSWLYESRNKNSVA | GASTRES | QQYHRLPLS |
| 990 pM | 6 of 6 | KLPMATMVESVSKNNVA | ELSTRGS | QQYNRLPLS |
| 480 pM | 6 of 6 | KLSCSQDYWSRNTNSVA | GASTRES | QQYHRLPLS |
| 54 nM | 6 of 6 | ILSQMMLTAGNKHNSVA | QANYRES | QQYHRLPLS |
| 1.4 nM | 6 of 6 | MISDLTMYGSRNKNSVA | DLSTRGY | QQYHRLPLS |
| 9.7 nM | 6 of 6 | KIRWQQYSQSEMEANIA | QESTRHQ | QQYFRLPLS |
| 16 nM | 6 of 6 | KSSQSVYFEPRNKNSVA | NASTRES | QQYHRLPLS |
| 1.1 µM | 3 of 6 | HSSPSVLYESCNKNMVA | NASTREM | QQLHRLPLS |
| 540 pM | 6 of 6 | KLQMSMLYESRMMNSVA | DASVRES | QQYHRLPLS |
| 610 nM | 6 of 6 | MMGLCQNGYYQQNNSIA | DVNERAM | QQYGRLPLV |
| 2.2 nM | 6 of 6 | KYYPSYLYESRNKNSVA | QASTRES | QQYHRLPLS |
| 2.8 nM | 5 of 6 | KSSQEVTYESDNKYSVA | WASTRES | QSYHRLPLS |
| 7.0 nM | 6 of 6 | KLSVMTSYLSVNKNSVA | EMSTRES | QQYDRLPLS |
| 800 pM | 6 of 6 | KLSQSVDYESRNKNSVA | GASTRES | QQYHRLPLS |
| 120 nM | 5 of 6 | ILSQSVLMGMHTKNSVA | QATLRFN | QQYHRLPFM |
| 86 nM | 2 of 6 | KSSQSVLYESRNKNSVA | WASTRES | QQYHGLPLS |
| nd | 0 of 6 | KSSTSVLQESRIVNSVA | WESTRES | QQYHRLPLS |
| 2.1 nM | 6 of 6 | KSSQQWLYESRNKNSVA | GASHRES | QQYHRLPLS |
| 230 nM | 5 of 6 | KSSQSVLYESRDKSSVA | WASTRES | QQYHRPPLS |
| 2.7 nM | 6 of 6 | KSSQLEYYEDRMKNSVA | NASYRLS | QQYHRLPLS |
| 58 nM | 6 of 6 | HISMSVGMTSFQKNSVA | ENSTREN | QQYDRLPLS |
| 270 nM | 5 of 6 | KSSQSVLYEVNNKNSVA | WASTRES | QQYHRLPLL |
| 3.1 nM | 6 of 6 | KMSQSVLYESRAKNSVA | WASTRES | QQYHRLPLS |
| 1.8 nM | 12 of 12 | KSSQSVLYESRNKNSVA | EASTRES | QQYHRLPLS |
| 43 nM | 4 of 6 | QLYEMLYELSGKTHSVA | DNSTRGD | QQYFRLPLE |
| 3.2 nM | 6 of 6 | KWMEGWLYESRNKNSVA | EGSTRES | QQYHRLPLS |

The last 6 entries again:

| CDR-L1 | CDR-L2 | CDR-L3 | Kd (apparent) | seen in |
|---|---|---|---|---|
| HISMSVGMTSFQKNSVA | ENSTREN | QQYDRLPLS | 58 nM | 6 of 6 |
| KSSQSVLYEVNNKNSVA | WASTRES | QQYHRLPLL | 270 nM | 5 of 6 |
| KMSQSVLYESRAKNSVA | WASTRES | QQYHRLPLS | 3.1 nM | 6 of 6 |
| KSSQSVLYESRNKNSVA | EASTRES | QQYHRLPLS | 1.8 nM | 12 of 12 |
| QLYEMLYELSGKTHSVA | DNSTRGD | QQYFRLPLE | 43 nM | 4 of 6 |
| KWMEGWLYESRNKNSVA | EGSTRES | QQYHRLPLS | 3.2 nM | 6 of 6 |

The range of this assay differs from that of the first round, and the authors advise against merging the two. Some sequences occur more than once in the pool; their replicates are pooled. The authors averaged sequences with at least three values out of six and counted those with two or fewer as poor binders.

From the AlphaSeq antibody data of Li et al. 2023 (doi:10.1038/s41467-023-39022-2), copy in the FLAb collection.